For one molecule, Ki results are on record in patent publication US7838556B2 (priority 2006, dated 2010).

For assay [1], the target named is Adrenergic, Alpha 1, Non-selective. Type of assay: binding. The conditions noted are these: read-out: Ki (M) Ref. Cpd.
Assay [2] concerns the target Adrenergic, Alpha 2, Non-selective. The class given is binding. The conditions noted are these: read-out: Ki (M) Ref. Cpd.

The Ki is the equilibrium dissociation constant of an inhibitor or competing ligand from its target.

Consider `Cc1ccc(N(CC2=NCCN2)c2cccc(O)c2)cc1` [Phentolamine, reference compound], for which the Ki in assay [1] came out at 3.62e-09 M; in assay [2], 9.4e-09 M.
